Measurements from EP4378525A1, “NON PEPTIDERGIC AGONISTS OF OXYTOCIN RECEPTOR” (Université de Strasbourg, priority 2022, dated 2024).

Chains of the proteins cited; added tags and fusions are not shown.
UniProt P30559, whole entry: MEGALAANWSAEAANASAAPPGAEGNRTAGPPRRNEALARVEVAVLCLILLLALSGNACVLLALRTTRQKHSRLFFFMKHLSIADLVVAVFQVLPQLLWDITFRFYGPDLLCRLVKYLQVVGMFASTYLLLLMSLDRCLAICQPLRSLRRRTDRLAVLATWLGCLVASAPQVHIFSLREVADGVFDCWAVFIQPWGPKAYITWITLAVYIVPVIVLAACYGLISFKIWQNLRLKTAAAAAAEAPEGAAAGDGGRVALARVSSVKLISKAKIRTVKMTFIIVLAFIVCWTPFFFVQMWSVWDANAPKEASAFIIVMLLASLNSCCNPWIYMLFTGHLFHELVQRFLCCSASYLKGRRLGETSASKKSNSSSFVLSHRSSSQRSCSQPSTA

Molecular target: oxytocin receptor (Homo sapiens, UniProt P30559)
Experiment: IP-One IP1 accumulation assay in CHO cell lines expressing oxytocin receptor (agonist activation)
Details: read-out: OT-R EC50, n=3, tested form: TFA

EC50: 2.3 nM
Structure (SMILES): CN(C)C(=S)[C@@H]1C[C@@H](n2cc(CO)nn2)CN1C(=O)NCc1ccc(C(=O)N2Cc3cnn(C)c3Nc3ccccc32)cc1Cl
